Measurements reported in US8492328B2, “Biomarkers and methods for determining sensitivity to insulin growth factor-1 receptor modulators” (Bristol-Myers Squibb Company, priority 2007, dated 2013).
“Also recorded” adds a separate entry of the source.

System: IGF1R-sal, Colo205, RD1, HT-29, WiDr, GEO, MDA-PCa-2b, MCF-7, H3396, N-87, BT474, and SKBR3 cell lines
Assay: Drug combination study (Dilution of Ratios) in cellular proliferation assays
Details: in vitro combination with compound 1, multiple cell lines, analyzed by Isobolograms

cetuximab
Combination Result: synergistic effects; also recorded: Synergy
